The record followed here is patent publication US10221167B2, “Hydroxyalkylamine- and hydroxycycloalkylamine-substituted diamine-arylsulfonamide compounds with selective activity in voltage-gated sodium channels” (Merck Sharp & Dohme Corp., priority 2015, dated 2019).

The chains behind the UniProt entries cited, without tags or fusion partners.
UniProt Q14524, whole entry: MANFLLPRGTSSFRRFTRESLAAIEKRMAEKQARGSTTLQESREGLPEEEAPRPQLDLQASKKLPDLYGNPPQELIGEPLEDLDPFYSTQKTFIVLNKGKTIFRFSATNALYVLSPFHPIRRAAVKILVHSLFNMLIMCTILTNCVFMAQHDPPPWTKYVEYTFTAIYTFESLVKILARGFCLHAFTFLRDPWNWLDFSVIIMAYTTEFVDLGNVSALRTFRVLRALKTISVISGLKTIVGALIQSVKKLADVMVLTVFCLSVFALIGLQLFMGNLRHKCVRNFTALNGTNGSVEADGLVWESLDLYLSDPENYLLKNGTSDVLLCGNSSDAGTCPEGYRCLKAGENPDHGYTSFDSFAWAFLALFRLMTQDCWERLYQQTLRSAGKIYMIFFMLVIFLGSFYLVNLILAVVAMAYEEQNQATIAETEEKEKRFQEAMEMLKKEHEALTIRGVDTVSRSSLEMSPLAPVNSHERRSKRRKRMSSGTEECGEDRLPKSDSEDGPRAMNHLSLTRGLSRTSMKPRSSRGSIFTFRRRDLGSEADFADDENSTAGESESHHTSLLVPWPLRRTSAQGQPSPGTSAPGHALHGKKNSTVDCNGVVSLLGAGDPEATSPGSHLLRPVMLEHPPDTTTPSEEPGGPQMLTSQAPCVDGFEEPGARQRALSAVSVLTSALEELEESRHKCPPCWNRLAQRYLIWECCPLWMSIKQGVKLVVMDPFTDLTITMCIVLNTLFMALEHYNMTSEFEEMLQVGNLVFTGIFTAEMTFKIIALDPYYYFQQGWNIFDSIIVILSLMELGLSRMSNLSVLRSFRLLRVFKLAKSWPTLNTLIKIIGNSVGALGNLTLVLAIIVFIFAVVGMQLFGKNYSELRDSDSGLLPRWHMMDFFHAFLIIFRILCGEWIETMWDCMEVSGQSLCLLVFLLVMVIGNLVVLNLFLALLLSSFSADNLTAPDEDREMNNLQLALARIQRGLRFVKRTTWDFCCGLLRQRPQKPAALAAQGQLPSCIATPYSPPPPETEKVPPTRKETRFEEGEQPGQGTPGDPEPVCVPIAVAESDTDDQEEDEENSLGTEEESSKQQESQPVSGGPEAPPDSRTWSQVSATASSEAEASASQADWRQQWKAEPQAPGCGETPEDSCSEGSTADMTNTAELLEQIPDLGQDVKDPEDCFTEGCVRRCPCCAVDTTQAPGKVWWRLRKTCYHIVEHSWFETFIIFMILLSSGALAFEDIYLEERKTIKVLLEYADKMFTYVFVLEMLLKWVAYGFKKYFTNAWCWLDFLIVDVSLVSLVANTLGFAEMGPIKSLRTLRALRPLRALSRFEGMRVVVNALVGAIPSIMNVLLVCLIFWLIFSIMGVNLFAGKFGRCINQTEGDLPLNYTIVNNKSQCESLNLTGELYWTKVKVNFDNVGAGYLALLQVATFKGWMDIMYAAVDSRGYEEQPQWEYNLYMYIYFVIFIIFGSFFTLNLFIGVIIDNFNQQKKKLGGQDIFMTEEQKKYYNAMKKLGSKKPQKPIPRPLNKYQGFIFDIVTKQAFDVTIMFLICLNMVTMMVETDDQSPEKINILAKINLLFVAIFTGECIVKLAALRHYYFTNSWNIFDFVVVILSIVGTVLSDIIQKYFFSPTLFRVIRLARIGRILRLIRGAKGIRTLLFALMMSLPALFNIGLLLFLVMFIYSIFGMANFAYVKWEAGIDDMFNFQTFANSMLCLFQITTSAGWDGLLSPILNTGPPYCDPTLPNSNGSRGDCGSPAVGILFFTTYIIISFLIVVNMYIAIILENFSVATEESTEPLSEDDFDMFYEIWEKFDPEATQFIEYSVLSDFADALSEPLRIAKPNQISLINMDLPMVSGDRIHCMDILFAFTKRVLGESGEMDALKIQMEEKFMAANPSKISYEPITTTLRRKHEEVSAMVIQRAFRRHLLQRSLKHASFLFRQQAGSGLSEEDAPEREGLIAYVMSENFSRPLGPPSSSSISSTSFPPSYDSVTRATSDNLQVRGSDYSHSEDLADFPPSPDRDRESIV
UniProt Q15858, whole entry: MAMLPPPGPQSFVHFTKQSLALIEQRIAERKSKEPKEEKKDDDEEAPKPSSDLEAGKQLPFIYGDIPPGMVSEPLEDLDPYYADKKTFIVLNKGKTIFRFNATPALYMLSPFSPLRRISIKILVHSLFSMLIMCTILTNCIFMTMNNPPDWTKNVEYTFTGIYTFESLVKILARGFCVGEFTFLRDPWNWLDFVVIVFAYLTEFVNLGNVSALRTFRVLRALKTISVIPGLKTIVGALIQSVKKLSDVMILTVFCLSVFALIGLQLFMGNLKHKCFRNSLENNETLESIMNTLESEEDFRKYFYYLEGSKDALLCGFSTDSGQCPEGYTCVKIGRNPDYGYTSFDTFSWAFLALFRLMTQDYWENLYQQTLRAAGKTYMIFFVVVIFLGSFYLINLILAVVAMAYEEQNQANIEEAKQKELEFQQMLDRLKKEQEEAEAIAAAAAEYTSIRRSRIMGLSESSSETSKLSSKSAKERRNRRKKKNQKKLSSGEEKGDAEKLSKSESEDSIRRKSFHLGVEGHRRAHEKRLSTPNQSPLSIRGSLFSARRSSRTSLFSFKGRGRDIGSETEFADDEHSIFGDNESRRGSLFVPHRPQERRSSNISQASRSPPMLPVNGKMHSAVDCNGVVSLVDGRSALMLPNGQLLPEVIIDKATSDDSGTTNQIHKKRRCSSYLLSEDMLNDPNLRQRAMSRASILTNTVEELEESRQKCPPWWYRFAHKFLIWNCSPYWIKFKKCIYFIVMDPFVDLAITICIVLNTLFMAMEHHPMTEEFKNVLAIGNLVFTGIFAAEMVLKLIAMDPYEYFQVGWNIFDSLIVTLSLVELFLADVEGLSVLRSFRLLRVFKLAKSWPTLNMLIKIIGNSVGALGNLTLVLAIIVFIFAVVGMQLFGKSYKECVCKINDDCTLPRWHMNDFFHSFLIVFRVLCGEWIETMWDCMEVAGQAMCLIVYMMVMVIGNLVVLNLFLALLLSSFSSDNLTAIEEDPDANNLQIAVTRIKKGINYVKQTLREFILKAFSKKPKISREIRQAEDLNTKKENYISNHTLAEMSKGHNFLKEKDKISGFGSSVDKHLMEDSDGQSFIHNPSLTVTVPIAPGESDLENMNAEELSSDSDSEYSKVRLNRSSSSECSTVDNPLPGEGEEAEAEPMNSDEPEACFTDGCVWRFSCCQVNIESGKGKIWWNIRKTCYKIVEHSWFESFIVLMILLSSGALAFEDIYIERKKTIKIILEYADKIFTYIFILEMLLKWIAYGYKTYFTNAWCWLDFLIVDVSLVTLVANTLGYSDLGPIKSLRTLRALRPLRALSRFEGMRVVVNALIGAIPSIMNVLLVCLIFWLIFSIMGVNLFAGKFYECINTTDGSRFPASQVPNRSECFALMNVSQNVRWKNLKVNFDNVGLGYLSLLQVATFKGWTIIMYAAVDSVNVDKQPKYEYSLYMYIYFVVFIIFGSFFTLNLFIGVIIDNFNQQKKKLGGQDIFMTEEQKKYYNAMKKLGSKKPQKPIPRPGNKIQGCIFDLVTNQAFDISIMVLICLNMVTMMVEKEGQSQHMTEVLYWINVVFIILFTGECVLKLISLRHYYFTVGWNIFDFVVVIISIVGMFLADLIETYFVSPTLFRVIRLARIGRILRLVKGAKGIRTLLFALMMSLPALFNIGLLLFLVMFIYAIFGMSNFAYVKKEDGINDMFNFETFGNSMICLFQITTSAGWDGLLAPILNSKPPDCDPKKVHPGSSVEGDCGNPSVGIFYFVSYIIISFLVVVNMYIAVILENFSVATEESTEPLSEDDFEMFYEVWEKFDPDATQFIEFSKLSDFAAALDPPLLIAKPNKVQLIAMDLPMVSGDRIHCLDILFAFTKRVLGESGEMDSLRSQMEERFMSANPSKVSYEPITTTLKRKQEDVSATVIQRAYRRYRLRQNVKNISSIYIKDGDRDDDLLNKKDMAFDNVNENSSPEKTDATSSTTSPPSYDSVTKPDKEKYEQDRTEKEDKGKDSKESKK

In test [1] the target is human Nav1.5 channels stably expressed in HEK 293 cells (Homo sapiens, UniProt Q14524). Description: IonWorks Quattro automated patch-clamp, Nav1.5 (selectivity ratio versus Nav1.7). The conditions noted are these: selectivity for Nav1.7 over Nav1.5, inactivated state block. On the procedure:
(§1) Compounds were tested on human Nav1.7 and Nav1.5 channels stably expressed in HEK 293 cells. Sodium current measurements on IonWorks Quattro: An automated patch-clamp assay on the IonWorks Quattro platform (Molecular Devices) was used to measure state-dependent inhibition of human Nav1.7 and 1.5 channels. Cells were sealed on a planar substrate using the Population Patch Plate (PPC) technology. Electrical access was obtained using both nystatin and amphotericin. A double-pulse protocol was used for the determination of IC50 values for inactivated state block. Nav1.7 and Nav1.5 expressing cells were voltage clamped at −100 mV and −110 mV, respectively. A depolarizing prepulse to −10 mV (Nav1.7) or −30 mV (Nav1.5) for 1000 ms followed by a 10 ms repolarization to −100 mV (Nav1.7) or −110 mV (Nav1.5) was given to generate fractional channel inactivation of ˜50%, followed by a 10 ms test pulse to −10 mV (Nav1.7) or −30 mV (Nav1.5) to measure peak current in control conditions and after compound addition. The following recording solutions were used (mM). External: 150 NaCl, 2 CaCl2, 5 KCl, 1 Mg Cl2, 10 HEPES, 12 Dextrose; internal: 120 CsF, 30 CsCl, 10 EGTA, 5 HEPES, 5 NaF, 2 MgCl2.
(§2) For all electrophysiology experiments, offline analysis was used to determine percent inhibition as a function of drug concentration. IC50 values were determined by fitting to the Hill equation. […]
On the technique in general: The patch-clamp technique gives a direct electrical read-out from membranes.

Test [2] deals with human Nav1.7 channels stably expressed in HEK 293 cells (Homo sapiens, UniProt Q15858). Description: IonWorks Quattro automated patch-clamp, state-dependent inhibition of Nav1.7. The conditions noted are these: read-out: potency for the Nav 1.7 sodium ion channel (as measured by IonWorks), inactivated state block, double-pulse protocol, holding -100 mV. On the procedure: as §1, §2

Consider `O=S(=O)(Nc1ncns1)c1cc(Br)c(NCCCCN2CCNCC(O)C2)cc1F` (centres unmarked), for which the “ratio of Nav1.7 potency:Nav 1.5 potency” value in test [1] was not below 200. Also, the IC50 in test [2] amounted to 160 nM.
